From PubChem BioAssay AID463213 (Sanford-Burnham Center for Chemical Genomics, 2010)
This is a selection; strong and weak results do not stand in their true shares. Activity calls are given as the source filed them.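 How the source made its calls: active means inhibition of yeast growth at or above a set limit in either of two repeat tests at 20 µM; inactive means the rest.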

Experiment: tim10-1 ts yeast growth inhibition, retested – single concentration, luminescence, S. cerevisiae, confirmation (AID 463213);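 further: tim10-1 mutant grown at permissive 25 °C to find synthetic lethal compounds; 0% = DMSO yeast wells and 100% = medium wells without yeast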
Settings: S. cerevisiae tim10-1 ts strain growth, BacTiter-Glo, 24 h; at 20 µM; active compounds read high

Structure (SMILES)	inhibition
O=[N+]([O-])c1cc([N+](=O)[O-])c(Nc2ccccn2)c([N+](=O)[O-])c1	active: 58.9%
CP(=O)(OC12CC3CC(CC(C3)C1)C2)OC12CC3CC(CC(C3)C1)C2	active: 35.4%
CCCCCOc1ccc(NP(C)(=O)Oc2ccc(Cl)cc2Cl)cc1 (stereo not given)	inactive: 21.5%
O=[N+]([O-])c1cc([N+](=O)[O-])c(Nc2cccnc2)c([N+](=O)[O-])c1	active: 50.2%
CC(C)(C)c1ccc(OP(C)(=O)Nc2ccc(SC(F)(F)F)cc2)cc1 (stereo not given)	inactive: 19.8%
